{"sequences": {"note": "Chains of the proteins cited; added tags and fusions are not shown. Residues count along the entry.", "UniProt P42676, 38-704": "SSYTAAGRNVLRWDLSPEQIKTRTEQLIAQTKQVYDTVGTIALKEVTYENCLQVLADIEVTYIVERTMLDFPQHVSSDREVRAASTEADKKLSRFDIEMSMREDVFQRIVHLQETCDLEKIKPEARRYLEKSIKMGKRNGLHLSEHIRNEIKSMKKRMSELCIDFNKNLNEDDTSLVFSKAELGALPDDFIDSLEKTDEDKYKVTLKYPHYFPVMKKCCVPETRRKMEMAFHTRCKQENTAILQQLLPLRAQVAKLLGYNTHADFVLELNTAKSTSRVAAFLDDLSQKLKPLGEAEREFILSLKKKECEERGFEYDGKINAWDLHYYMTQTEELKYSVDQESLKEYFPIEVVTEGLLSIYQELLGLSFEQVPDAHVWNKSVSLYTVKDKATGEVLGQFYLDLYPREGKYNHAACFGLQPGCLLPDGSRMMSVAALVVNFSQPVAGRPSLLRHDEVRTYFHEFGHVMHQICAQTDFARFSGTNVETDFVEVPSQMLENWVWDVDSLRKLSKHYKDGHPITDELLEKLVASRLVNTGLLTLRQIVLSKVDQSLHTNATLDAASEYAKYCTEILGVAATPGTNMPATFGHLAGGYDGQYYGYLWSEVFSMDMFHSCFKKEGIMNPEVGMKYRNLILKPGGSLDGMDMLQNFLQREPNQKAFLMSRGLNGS"}, "source": "paper PMC4152863", "about": "(Regulatory peptides, 2013)", "key": {"[1]": {"target": "T1, novel, non-AT1, non-AT2 angiotensin binding site (neurolysin) (Rattus norvegicus, UniProt P42676)", "assay": "Inhibition or enhancement of PCMB-unmasked 125I-SI Ang II binding in membranes"}, "[2]": {"target": "T1, novel, non-AT1, non-AT2 angiotensin binding site (neurolysin)", "assay": "Unmasking of specific 125I-SI Ang II binding in membranes"}}, "note": "Values joined by “and” are separate entries in the source; they are usually repeats but may differ in a detail not shown here. Equal values may be shown once.", "data": [{"substance": "thimerosal", "values": [{"measurement": "inhibition of PCMB unmasking of 125I-SI Ang II binding, primary screening", "setting": "[1]", "value": "Greater than 50%"}, {"measurement": "inhibition of PCMB-unmasked 125I-SI Ang II binding, primary screening (in words)", "setting": "[1]", "value": "moderately inhibited"}, {"measurement": "Rmax, unmasked binding relative to PCMB unmasked binding", "setting": "[2]", "value": "34.7±1.6% and 49.9±9.2%"}, {"measurement": "unmasking of specific 125I-SI Ang II binding in the absence of PCMB (in words)", "setting": "[2]", "value": "unmasked non-AT1, non-AT2 binding independent of PCMB"}]}]}
